According to patent publication US8071650B2, “Thiourea derivatives and the pharmaceutical compositions containing the same” (Pacific Corporation, priority 2000, dated 2011):
Where two headings read alike, the source gives them in different places.

Sequences of proteins named here, by UniProt entry; tags and fusion partners are left off.
UniProt O35433, whole entry: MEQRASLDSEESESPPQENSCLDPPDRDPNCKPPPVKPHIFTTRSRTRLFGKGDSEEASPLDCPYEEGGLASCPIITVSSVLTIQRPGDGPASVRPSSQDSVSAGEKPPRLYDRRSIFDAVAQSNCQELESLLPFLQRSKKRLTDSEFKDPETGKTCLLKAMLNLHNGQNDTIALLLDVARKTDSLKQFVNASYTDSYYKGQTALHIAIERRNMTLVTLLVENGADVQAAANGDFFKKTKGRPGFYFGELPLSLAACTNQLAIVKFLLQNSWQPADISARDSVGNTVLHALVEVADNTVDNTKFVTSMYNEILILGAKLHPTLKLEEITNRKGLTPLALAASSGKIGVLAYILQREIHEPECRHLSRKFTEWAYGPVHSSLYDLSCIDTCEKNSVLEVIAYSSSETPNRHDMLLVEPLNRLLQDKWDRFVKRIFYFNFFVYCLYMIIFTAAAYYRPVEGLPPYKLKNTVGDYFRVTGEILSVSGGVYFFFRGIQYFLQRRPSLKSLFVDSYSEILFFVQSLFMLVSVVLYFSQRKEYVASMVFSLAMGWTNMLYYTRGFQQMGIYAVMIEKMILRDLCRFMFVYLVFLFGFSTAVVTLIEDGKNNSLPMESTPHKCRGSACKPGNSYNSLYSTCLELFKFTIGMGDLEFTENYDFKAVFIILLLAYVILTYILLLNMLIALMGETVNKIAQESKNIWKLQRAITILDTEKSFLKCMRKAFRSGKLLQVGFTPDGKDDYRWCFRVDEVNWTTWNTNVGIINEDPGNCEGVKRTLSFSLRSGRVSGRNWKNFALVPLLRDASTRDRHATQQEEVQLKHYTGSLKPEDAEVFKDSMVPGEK

Experiments:
[1] = molecular target: cation channel connected to vanilloid receptor (Rattus norvegicus, UniProt O35433); test: Channel activity assay (Patchclamp Test); conditions: Table 1b; potency relative to capsazepine
vanilloid receptor = vanilloid receptor (Rattus norvegicus, UniProt O35433); test: 45Ca influx test, antagonistic activity against capsaicin (Calcium Uptake Test, IC50); conditions: read-out: Calcium Uptake Test (IC50), neonatal SD rat DRG neurons, inhibition of response to capsaicin 0.5 μM
Male ICR mice = test: Analgesic activity test: mouse writhing test by inducing with phenyl-p-quinone; conditions: dose 1 mg/kg intraperitoneally, 30 min before phenyl-p-quinone

Row | SMILES | Patchclamp Test (antagonistic activities) [1] | IC50 (vanilloid receptor; Table 1b) [nM] | IC50 (vanilloid receptor; Table 1c) [nM] | Analgesic effect (% Inhibition) (Male ICR mice) [%]
1 | CCCCOc1cc(C(C)(C)C)ccc1CNC(=S)NCc1ccc(NS(C)(=O)=O)cc1 | + |  |  | 
2 | CC(C)COc1cc(C(C)(C)C)ccc1CNC(=S)NCc1ccc(NS(C)(=O)=O)cc1 | + | 19 |  | 
3 | CC(C)Oc1cc(C(C)(C)C)ccc1CNC(=S)NCc1ccc(NS(C)(=O)=O)cc1 | + |  |  | 
4 | COCOc1cc(C(C)(C)C)ccc1CNC(=S)NCc1ccc(NS(C)(=O)=O)cc1 | + |  |  | 
5 | CC(C)(C)COc1cc(C(C)(C)C)ccc1CNC(=S)NCc1ccc(NS(C)(=O)=O)cc1 | + | 250 |  | 
6 | COc1cc(CCCN(CCc2ccccc2)C(=S)NCCc2ccccc2)ccc1O |  |  | 380 | 57
7 | CCCOc1cc(C(C)(C)C)ccc1CNC(=S)NCc1ccc(NS(C)(=O)=O)cc1 | + |  |  | 
8 | CC(C)(C)c1ccc(CNC(=S)NCc2ccc(NS(C)(=O)=O)cc2)c(OCc2ccccc2)c1 | + |  |  | 
9 | CCOc1cc(C(C)(C)C)ccc1CNC(=S)NCc1ccc(NS(C)(=O)=O)cc1 | + | 1140 |  | 
10 | COCCOc1cc(C(C)(C)C)ccc1CNC(=S)NCc1ccc(NS(C)(=O)=O)cc1 | + | 63 |  | 
